{"source": "paper PMC8138772", "about": "(The Journal of Biological Chemistry, 2021)", "details": "mouse", "data": [{"smiles": "CC(C)C[C@@H]1NC(=O)[C@H](CC(=O)O)NC(=O)CNC(=O)[C@H](CCCNC(=N)N)NC(=O)[C@H](CC(C)C)NC(=O)[C@H](CC(N)=O)NC(=O)[C@@H]2C[C@@H](O)CN2C(=O)[C@H](C(C)C)NC(=O)[C@@H](NC(=O)[C@H](CC(N)=O)NC(=O)CCCC[C@@H]2SC[C@@H]3NC(=O)N[C@@H]32)CSc2c(F)c(F)c(c(F)c2F)-c2c(F)c(F)c(c(F)c2F)SC[C@@H](C(=O)N[C@H](CCCNC(=N)N)C(=O)N[C@H](C(=O)N[C@@H](CCCCN)C(=O)N[C@H](C)C(N)=O)[C@@H](C)O)NC(=O)[C@H](C(C)C)NC(=O)[C@H](CCCCN)NC(=O)[C@H](CCC(N)=O)NC(=O)[C@H](C)NC(=O)[C@H](CC(C)C)NC(=O)[C@H](C(C)C)NC(=O)[C@H](CCC(N)=O)NC1=O", "note": "[C2C18 Ph RDTKAD DFBP]", "values": [{"measurement": "t1/2 of intact peptide in serum", "value": 6.611, "unit": "h"}]}]}
